We go through two molecules from patent publication US10946017B2, “Tank-binding kinase-1 PROTACs and associated methods of use” (Arvinas Operations, Inc., priority 2015, dated 2021).

Chains of the proteins cited; added tags and fusions are not shown.
UniProt Q9UHD2, whole entry: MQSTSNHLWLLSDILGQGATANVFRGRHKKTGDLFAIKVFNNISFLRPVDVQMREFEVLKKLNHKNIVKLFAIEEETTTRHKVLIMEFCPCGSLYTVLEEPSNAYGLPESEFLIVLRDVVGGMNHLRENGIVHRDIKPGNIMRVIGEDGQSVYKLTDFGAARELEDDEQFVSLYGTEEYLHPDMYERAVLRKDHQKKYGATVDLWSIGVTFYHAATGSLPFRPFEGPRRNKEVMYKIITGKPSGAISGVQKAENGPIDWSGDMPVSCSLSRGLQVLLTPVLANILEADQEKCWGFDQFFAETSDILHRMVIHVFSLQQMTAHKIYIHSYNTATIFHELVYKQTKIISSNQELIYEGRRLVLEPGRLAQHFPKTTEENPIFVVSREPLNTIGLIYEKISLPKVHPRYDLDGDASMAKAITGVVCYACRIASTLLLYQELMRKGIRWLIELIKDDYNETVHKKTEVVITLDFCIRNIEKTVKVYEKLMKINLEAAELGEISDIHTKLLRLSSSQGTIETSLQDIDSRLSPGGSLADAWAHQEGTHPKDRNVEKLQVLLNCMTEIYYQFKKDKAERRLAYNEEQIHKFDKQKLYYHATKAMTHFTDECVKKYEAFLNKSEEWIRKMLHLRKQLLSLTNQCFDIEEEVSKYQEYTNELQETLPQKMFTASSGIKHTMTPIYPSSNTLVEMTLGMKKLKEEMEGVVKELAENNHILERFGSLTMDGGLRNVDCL

SMILES strings stand for the structures. A value given as a limit tells only on which side of the number the result lay.

The test addresses TBK1 (Homo sapiens (Human), UniProt Q9UHD2). In words: In vitro TBK1 degradation assay, Panc02.13 cells (compounds 3-33), immunoblot. As to conditions: read-out: DC50 (concentration at which 50% degradation is observed), 16 h, mean of ≥ 2 determinations. A general note: Immunoblotting shows a protein as a band on a membrane.

As for `Cc1ncsc1-c1ccc(CNC(=O)[C@@H]2C[C@@H](O)CN2C(=O)[C@@H](NC(=O)COCCOCCOc2ccc(Nc3ncc(Br)c(NCCCN(C)C(=O)C4CCC4)n3)cc2)C(C)(C)C)cc1`, the DC50 was above 1000 nM.
On to `Cc1ncsc1-c1ccc(CNC(=O)[C@@H]2C[C@@H](O)CN2C(=O)[C@@H](NC(=O)COCCCCOc2ccc(Nc3ncc(Br)c(NCCCN(C)C(=O)C4CCC4)n3)cc2)C(C)(C)C)cc1`, for which the DC50 was above 1000 nM.
